Reference: EP4834897A1, “COMPOUNDS WITH TWO AZAHETEROCYCLES SUBSTITUTED ISOINDOLINONE SKELETON AND USES THEREOF” (dated 2026)

Amino acid sequences for entries named in this document (tags omitted).
UniProt Q96SW2, whole entry: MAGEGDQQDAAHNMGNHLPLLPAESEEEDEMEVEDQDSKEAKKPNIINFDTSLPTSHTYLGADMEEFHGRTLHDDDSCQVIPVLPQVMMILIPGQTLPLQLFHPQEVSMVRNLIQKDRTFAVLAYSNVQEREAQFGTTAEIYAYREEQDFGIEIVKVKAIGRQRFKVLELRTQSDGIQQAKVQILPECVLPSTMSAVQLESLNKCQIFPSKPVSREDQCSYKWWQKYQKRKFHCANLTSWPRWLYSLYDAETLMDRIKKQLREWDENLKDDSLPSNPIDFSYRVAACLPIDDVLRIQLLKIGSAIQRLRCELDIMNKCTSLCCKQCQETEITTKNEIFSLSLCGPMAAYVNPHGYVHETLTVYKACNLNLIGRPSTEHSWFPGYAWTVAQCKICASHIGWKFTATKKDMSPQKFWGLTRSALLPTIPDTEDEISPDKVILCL
UniProt Q9UKS7, whole entry: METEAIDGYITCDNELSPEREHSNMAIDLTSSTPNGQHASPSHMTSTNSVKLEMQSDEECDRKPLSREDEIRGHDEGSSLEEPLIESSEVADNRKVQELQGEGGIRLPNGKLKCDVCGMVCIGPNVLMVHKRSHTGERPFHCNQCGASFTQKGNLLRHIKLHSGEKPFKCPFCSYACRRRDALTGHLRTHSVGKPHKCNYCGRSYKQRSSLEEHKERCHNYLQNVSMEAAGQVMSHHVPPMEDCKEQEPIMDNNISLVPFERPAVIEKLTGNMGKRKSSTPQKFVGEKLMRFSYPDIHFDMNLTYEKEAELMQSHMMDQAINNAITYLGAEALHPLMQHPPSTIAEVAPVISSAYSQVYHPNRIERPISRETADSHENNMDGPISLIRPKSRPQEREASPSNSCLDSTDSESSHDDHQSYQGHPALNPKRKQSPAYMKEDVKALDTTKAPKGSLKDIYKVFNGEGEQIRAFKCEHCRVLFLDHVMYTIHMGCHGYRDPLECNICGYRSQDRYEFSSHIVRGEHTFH
UniProt P48729, whole entry: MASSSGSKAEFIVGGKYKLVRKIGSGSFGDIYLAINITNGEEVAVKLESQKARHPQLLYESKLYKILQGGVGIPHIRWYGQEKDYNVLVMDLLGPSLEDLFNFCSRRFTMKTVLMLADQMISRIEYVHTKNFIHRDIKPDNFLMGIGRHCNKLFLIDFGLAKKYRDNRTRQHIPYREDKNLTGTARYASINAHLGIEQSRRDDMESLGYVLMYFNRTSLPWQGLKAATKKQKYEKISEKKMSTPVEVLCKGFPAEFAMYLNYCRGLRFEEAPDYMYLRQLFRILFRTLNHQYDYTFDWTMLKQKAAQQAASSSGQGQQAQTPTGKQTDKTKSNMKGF
UniProt P30291, whole entry: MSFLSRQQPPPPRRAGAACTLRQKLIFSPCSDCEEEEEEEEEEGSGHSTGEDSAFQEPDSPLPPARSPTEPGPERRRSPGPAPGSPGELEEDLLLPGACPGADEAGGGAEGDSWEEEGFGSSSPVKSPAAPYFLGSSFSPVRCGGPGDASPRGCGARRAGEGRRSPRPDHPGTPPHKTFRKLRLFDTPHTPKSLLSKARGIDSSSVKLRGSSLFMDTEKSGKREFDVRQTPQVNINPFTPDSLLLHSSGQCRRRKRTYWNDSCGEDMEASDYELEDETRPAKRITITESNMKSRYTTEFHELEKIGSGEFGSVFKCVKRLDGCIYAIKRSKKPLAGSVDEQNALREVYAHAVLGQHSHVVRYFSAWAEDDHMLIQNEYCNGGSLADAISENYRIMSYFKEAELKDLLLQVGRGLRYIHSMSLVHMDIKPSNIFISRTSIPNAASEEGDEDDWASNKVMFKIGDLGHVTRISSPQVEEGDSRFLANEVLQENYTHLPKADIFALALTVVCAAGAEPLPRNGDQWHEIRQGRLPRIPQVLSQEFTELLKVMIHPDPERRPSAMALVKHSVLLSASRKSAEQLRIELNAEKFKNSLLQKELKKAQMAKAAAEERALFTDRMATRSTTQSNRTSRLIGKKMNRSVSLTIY
UniProt Q9UKT9, whole entry: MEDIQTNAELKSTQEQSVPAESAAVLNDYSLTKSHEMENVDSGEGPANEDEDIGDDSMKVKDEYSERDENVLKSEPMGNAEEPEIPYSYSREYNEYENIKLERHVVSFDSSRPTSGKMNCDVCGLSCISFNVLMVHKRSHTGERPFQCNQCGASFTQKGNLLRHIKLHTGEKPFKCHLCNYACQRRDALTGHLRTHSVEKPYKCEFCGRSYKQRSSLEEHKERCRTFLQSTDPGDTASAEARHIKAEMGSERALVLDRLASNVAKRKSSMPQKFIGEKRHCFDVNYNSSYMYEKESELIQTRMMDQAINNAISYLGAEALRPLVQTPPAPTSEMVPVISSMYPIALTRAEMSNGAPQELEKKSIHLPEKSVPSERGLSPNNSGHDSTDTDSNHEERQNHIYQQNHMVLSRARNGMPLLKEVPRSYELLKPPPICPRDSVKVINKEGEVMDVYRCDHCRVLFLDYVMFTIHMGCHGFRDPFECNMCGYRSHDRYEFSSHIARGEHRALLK
UniProt Q13422, whole entry: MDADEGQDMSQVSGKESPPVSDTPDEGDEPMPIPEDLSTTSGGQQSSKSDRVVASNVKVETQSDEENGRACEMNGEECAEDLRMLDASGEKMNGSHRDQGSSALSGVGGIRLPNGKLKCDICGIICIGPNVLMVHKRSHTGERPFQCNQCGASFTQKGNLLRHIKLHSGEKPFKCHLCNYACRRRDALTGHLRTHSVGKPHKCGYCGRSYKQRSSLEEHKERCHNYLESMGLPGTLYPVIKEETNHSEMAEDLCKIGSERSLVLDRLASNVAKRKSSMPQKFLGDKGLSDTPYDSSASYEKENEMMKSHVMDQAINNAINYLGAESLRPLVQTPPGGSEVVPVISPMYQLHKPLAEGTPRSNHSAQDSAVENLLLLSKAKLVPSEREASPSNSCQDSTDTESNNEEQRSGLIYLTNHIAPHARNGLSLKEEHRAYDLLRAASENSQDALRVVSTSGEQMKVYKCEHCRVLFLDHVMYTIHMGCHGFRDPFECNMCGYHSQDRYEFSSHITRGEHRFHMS
UniProt P15170, whole entry: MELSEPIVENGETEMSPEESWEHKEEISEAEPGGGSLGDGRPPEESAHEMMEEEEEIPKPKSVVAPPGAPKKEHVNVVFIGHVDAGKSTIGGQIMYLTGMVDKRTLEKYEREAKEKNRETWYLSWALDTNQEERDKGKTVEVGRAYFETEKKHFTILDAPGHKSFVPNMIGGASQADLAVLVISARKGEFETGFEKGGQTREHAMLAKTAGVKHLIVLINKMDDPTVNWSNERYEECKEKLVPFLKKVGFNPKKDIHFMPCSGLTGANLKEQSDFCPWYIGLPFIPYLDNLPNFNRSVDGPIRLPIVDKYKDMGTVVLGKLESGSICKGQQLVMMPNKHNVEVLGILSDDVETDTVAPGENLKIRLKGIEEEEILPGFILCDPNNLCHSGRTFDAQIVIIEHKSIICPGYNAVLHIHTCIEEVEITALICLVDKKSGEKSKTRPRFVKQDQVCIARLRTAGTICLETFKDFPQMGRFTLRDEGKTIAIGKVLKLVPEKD
UniProt Q16531, whole entry partner: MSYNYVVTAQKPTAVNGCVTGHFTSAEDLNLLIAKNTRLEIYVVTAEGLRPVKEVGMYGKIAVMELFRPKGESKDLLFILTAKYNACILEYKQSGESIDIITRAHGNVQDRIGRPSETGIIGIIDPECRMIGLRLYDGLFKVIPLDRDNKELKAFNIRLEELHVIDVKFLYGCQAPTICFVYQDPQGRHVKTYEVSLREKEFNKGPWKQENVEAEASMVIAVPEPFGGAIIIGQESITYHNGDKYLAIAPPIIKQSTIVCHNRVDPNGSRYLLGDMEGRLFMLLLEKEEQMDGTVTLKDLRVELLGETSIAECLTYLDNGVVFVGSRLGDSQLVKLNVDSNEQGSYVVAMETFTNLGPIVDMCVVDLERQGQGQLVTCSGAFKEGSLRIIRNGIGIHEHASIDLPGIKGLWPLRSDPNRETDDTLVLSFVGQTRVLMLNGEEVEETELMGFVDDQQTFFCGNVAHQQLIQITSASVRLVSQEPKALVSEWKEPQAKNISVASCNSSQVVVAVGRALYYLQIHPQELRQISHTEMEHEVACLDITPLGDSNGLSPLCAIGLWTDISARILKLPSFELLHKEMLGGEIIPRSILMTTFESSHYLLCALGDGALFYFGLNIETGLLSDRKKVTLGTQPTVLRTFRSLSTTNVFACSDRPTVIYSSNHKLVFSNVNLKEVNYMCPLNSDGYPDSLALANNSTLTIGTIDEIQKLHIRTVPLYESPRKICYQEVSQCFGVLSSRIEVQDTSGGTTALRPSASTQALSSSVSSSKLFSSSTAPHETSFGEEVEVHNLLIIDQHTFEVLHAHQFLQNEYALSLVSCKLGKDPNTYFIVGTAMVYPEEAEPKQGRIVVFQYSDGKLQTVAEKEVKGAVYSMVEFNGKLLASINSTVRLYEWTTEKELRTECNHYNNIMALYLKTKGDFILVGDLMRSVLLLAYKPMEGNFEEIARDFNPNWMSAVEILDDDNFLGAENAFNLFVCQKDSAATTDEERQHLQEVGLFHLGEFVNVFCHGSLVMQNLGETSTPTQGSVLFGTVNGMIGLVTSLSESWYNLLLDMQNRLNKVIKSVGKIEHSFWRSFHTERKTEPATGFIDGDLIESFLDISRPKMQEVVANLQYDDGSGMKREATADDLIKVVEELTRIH

What was measured:
[1] = system: TNF-α; test: Inflammatory cytokine release from PBMCs induced by PHA (flow cytometry CBA); conditions: PHA 1 µg/mL, 24 h
[2] = system: IL-1α; test: as above; conditions: PHA 1 µg/mL, 24 h
[3] = target: CRBN (Homo sapiens, UniProt Q96SW2); test: CRBN binding affinity by HTRF (CEREBLON BINDING kit); conditions: CRBN binding, HTRF; for Inhibition Rate at 0.5 µM (%): compound at 0.5 µM; for Inhibition Rate at 2 µM (%): compound at 2 µM
[4] = target: IKZF2 (Homo sapiens, UniProt Q96SW2+Q9UKS7); test: Western blot assay of substrate protein degradation in hPBMCs; conditions: 24 hours treatment, compounds at 50 nM and 500 nM (concentration behind the class not stated)
[5] = target: CK1α (Homo sapiens, UniProt P48729+Q96SW2); test: as above; conditions: 24 hours treatment, compounds at 50 nM and 500 nM (concentration behind the class not stated)
[6] = target: WEE1 (Homo sapiens, UniProt P30291+Q96SW2); test: as above; conditions: 24 hours treatment, compounds at 50 nM and 500 nM (concentration behind the class not stated)
[7] = target: IKZF3 (Homo sapiens, UniProt Q96SW2+Q9UKT9); test: as above; conditions: 24 hours treatment, compounds at 50 nM and 500 nM (concentration behind the class not stated)
[8] = target: IKZF1 (Homo sapiens, UniProt Q13422+Q96SW2); test: as above; conditions: 24 hours treatment, compounds at 50 nM and 500 nM (concentration behind the class not stated)
[9] = target: GSPT1 (Homo sapiens, UniProt P15170+Q96SW2); test: as above; conditions: 24 hours treatment, compounds at 50 nM and 500 nM (concentration behind the class not stated)
[10] = system: GM-CSF; test: Inflammatory cytokine release from PBMCs induced by PMA + Ionomycin (flow cytometry CBA); conditions: 24 h
[11] = system: IL-5; test: as above; conditions: 24 h
[12] = system: Human myeloid monocytic leukemia cell (MV-4-11); test: Tumor cell proliferation inhibition (cell viability assay); conditions: MV-4-11 cells, 96 hours
[13] = system: IL-2; test: Inflammatory cytokine release from PBMCs induced by PHA (flow cytometry CBA); conditions: PBMCs, PHA 1 µg/mL, 24 h
[14] = system: IL-10; test: as above; conditions: PBMCs, PHA 1 µg/mL, 24 h

Row | Compound | Inhibition Rate (%) TNF-α ([1]; 0.1 µM) | Inhibition Rate (%) TNF-α ([1]; 1 µM) | Inhibition Rate at 0.5 µM (%) [3] | Inhibition Rate at 2 µM (%) [3] | substrate protein remaining % (IKZF2) [4] | substrate protein remaining % (CK1a) [5] | substrate protein remaining % (WEE1) [6] | substrate protein remaining % (IKZF3) [7] | substrate protein remaining % (IKZF 1) [8] | substrate protein remaining % (GSPT1) [9] | Inhibition Rate (%) GM-CSF ([10]; 0.1 µM) | Inhibition Rate (%) GM-CSF ([10]; 1 µM) | Inhibition Rate (%) IL-5 ([11]; 0.1 µM) | Inhibition Rate (%) IL-5 ([11]; 1 µM) | Inhibition Rate (%) IL-2 ([13]; 0.1 µM) | Inhibition Rate (%) IL-2 ([13]; 1 µM) | also measured
1 | O=C1CCC(N2Cc3cc(CCN4CCC(N5CCN(c6noc7cc(F)ccc67)CC5)CC4)ccc3C2=O)C(=O)N1 (stereo not drawn) | IV12 (70% < IV12 ≤ 80%) | IV1 0 | a6 (60% < a6 ≤ 70%) | a8 (80% < a8 ≤100%) |  |  |  |  |  |  |  |  |  |  |  |  | Inhibition Rate (%) IL-1α ([2]; 0.1 µM): IV13 (80% < IV13 ≤ 90%); Inhibition Rate (%) IL-1α ([2]; 1 µM): IV1 0
2 | CC1(C)CCC(CN2CCN(C3CCN(Cc4ccc5c(c4F)CN(C4CCC(=O)NC4=O)C5=O)CC3(F)F)CC2)=C(c2ccc(Cl)cc2)C1 (stereo not drawn) |  |  | a3 (30% < a3 ≤ 40%) | a7 (70% < a7 ≤80%) | B (80%< substrate protein remaining %≤ 100%) | B (80%< substrate protein remaining %≤ 100%) | B (80%< substrate protein remaining %≤ 100%) | A (0% ≤ substrate protein remaining % ≤ 80%) | B (80%< substrate protein remaining %≤ 100%) | B (80%< substrate protein remaining %≤ 100%) | IV9 (40% < IV9 ≤ 50%) | IV8 (30% < IV8 ≤ 40%) | IV9 (40% < IV9 ≤ 50%) | IV8 (30% < IV8 ≤ 40%) |  |  | 
3 | O=C1CCC(N2Cc3cccc(CN4CCC(N5CCN(C(c6ccccc6)c6ccccn6)CC5)C(F)(F)C4)c3C2=O)C(=O)N1 (stereo not drawn) |  |  | a3 (30% < a3 ≤ 40%) | a6 (60% < a6 ≤ 70%) | B (80%< substrate protein remaining %≤ 100%) | A (0% ≤ substrate protein remaining % ≤ 80%) | B (80%< substrate protein remaining %≤ 100%) | B (80%< substrate protein remaining %≤ 100%) | B (80%< substrate protein remaining %≤ 100%) | A (0% ≤ substrate protein remaining % ≤ 80%) | IV10 (50% < IV 10 ≤ 60%) | IV9 (40% < IV9 ≤ 50%) | IV9 (40% < IV9 ≤ 50%) | IV8 (30% < IV8 ≤ 40%) | IV10 (50% < IV 10 ≤ 60%) | IV7 (20% < IV7 ≤ 30%) | Inhibition Rate at 10 nM (%) [12]: 1a7 (50% ≤ 1a7 < 60%); Inhibition Rate at 500 nM (%) [12]: 1a9 (70% ≤ 1a9 < 80%)
4 | O=C1CCC(N2Cc3cccc(CN4CCC(N5CCN(C(c6ccccc6)c6ccccc6)CC5)CC4)c3C2=O)C(=O)N1 (stereo not drawn) | IV9 (40% < IV9 ≤ 50%) | IV1 0 |  |  |  |  |  |  |  |  | IV9 (40% < IV9 ≤ 50%) | IV9 (40% < IV9 ≤ 50%) |  |  | IV8 (30% < IV8 ≤ 40%) | IV1 0 | Inhibition Rate (%) IL-10 ([14]; 0.1 µM): IV8 (30% < IV8 ≤ 40%); Inhibition Rate (%) IL-10 ([14]; 1 µM): IV9 (40% < IV9 ≤ 50%)
5 | CC1(C)CCC(CN2CCN(C3CCN(Cc4ccc5c(c4)C(=O)N(C4CCC(=O)NC4=O)C5)CC3(F)F)CC2)=C(c2ccc(Cl)cc2)C1 (stereo not drawn) |  |  | a3 (30% < a3 ≤ 40%) | a6 (60% < a6 ≤ 70%) | B (80%< substrate protein remaining %≤ 100%) | A (0% ≤ substrate protein remaining % ≤ 80%) | B (80%< substrate protein remaining %≤ 100%) | B (80%< substrate protein remaining %≤ 100%) | B (80%< substrate protein remaining %≤ 100%) | A (0% ≤ substrate protein remaining % ≤ 80%) | IV8 (30% < IV8 ≤ 40%) | IV9 (40% < IV9 ≤ 50%) | IV8 (30% < IV8 ≤ 40%) | IV9 (40% < IV9 ≤ 50%) | IV9 (40% < IV9 ≤ 50%) | IV9 (40% < IV9 ≤ 50%) | 
6 | O=C1CCC(N2Cc3cccc(C(=O)N4CCC(N5CCN(c6noc7cc(F)ccc67)CC5)C(F)(F)C4)c3C2=O)C(=O)N1 (stereo not drawn) |  |  | a3 (30% < a3 ≤ 40%) | a6 (60% < a6 ≤ 70%) |  |  |  |  |  |  |  |  | IV8 (30% < IV8 ≤ 40%) | IV9 (40% < IV9 ≤ 50%) |  |  | 
7 | O=C1CCC(N2Cc3cc(CCCN4CCC(N5CCN(C(c6ccccc6)c6ccccn6)CC5)C(F)(F)C4)ccc3C2=O)C(=O)N1 (stereo not drawn) |  |  | a7 (70% < a7 ≤80%) | a8 (80% < a8 ≤100%) | B (80%< substrate protein remaining %≤ 100%) | B (80%< substrate protein remaining %≤ 100%) | B (80%< substrate protein remaining %≤ 100%) | B (80%< substrate protein remaining %≤ 100%) | B (80%< substrate protein remaining %≤ 100%) | A (0% ≤ substrate protein remaining % ≤ 80%) | IV10 (50% < IV 10 ≤ 60%) | IV1 0 | IV9 (40% < IV9 ≤ 50%) | IV9 (40% < IV9 ≤ 50%) | IV9 (40% < IV9 ≤ 50%) | IV1 0 | Inhibition Rate at 10 nM (%) [12]: 1a7 (50% ≤ 1a7 < 60%); Inhibition Rate at 500 nM (%) [12]: 1a7 (50% ≤ 1a7 < 60%)
8 | O=C1CCN(N2C(=O)c3ccc(CN4CCC(N5CCN(c6noc7cc(F)ccc67)CC5)CC4)cc3C2=O)C(=O)N1 |  |  |  |  |  |  |  |  |  |  |  |  | IV7 (20% < IV7 ≤ 30%) | IV9 (40% < IV9 ≤ 50%) | IV9 (40% < IV9 ≤ 50%) | IV9 (40% < IV9 ≤ 50%) | 
9 | CC1(C)CCC(C(=O)N2CCN(C3CCN(Cc4cccc5c4CN(C4CCC(=O)NC4=O)C5=O)CC3(F)F)CC2)=C(c2ccc(Cl)cc2)C1 (stereo not drawn) | IV8 (30% < IV8 ≤ 40%) | IV1 0 | a5 (53% < a5 ≤ 60%) | a8 (80% < a8 ≤100%) | B (80%< substrate protein remaining %≤ 100%) | A (0% ≤ substrate protein remaining % ≤ 80%) | B (80%< substrate protein remaining %≤ 100%) | A (0% ≤ substrate protein remaining % ≤ 80%) | B (80%< substrate protein remaining %≤ 100%) | A (0% ≤ substrate protein remaining % ≤ 80%) | IV9 (40% < IV9 ≤ 50%) | IV8 (30% < IV8 ≤ 40%) |  |  | IV9 (40% < IV9 ≤ 50%) | IV8 (30% < IV8 ≤ 40%) | Inhibition Rate (%) IL-10 ([14]; 0.1 µM): IV7 (20% < IV7 ≤ 30%); Inhibition Rate (%) IL-10 ([14]; 1 µM): IV9 (40% < IV9 ≤ 50%)
